From patent publication US8759537B2, “3H-imidazo [4, 5-C] pyridine-6-carboxamides as anti-inflammatory agents” (Boehringer Ingelheim International GmbH, priority 2010, dated 2014)

Amino acid sequences for entries named in this document (tags omitted).
UniProt O14684, whole entry: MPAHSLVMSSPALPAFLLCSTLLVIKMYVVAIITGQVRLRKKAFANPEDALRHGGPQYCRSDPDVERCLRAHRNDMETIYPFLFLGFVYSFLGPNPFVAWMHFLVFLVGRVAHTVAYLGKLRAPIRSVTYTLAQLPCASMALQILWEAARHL

Molecular target: mPGES-1 (Homo sapiens (Human), UniProt O14684)
Test: A549 cell-based assay (PGE2 formation, IL-1β stimulated, 50% human serum)
Details: read-out: mPGES-1 inhibitory effect in the cell assay, IC50, A549 cells, IL-1β 5 ng/ml

IC50: 1 nM
Compound: CN1CCC[C@H]1C(=O)NCc1ccc(Cl)c(Nc2nc3cc(C(=O)Nc4ccc(F)c(Cl)c4)c(OCC(F)F)cc3n2C)c1Cl
